Yeast mating assay 1: variants of the scFv Ab-14

Reference: Engelhart et al. 2022, doi:10.1038/s41597-022-01779-4. File: FLAb, binding data.

All variants were tested on one target, the spike HR2 peptide PDVDLGDISGINAS (SARS-CoV-2).

Parent: Ab-14, a human scFv built as VH, a (GGGGS)3 linker, VL. Only the CDRs of the light chain vary.
VH: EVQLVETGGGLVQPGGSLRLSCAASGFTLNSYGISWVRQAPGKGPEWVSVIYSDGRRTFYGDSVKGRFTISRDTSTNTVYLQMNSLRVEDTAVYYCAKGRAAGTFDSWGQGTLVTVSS
VL: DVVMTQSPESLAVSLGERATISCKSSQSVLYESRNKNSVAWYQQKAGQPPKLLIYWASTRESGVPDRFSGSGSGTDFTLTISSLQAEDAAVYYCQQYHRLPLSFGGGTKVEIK

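Phage display of a naive human antibody library on the peptide gave the parent. The library (AAYL50) carries one to three amino acid substitutions per variant, with no insertions or deletions. The assay is AlphaSeq: two haploid yeast populations carry antibody and antigen on their surface. The frequency of each diploid, read from paired DNA barcodes, reflects how well the two displayed proteins bind. Read counts were normalised to the haploid input and turned into Kd by a linear fit to BCL2-family pairs of known affinity, for each replicate. Each pool was mated in three replicate cultures.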

Changes read parent residue, position, new residue, counted from the first residue of the VL shown.
Affinities are written as log10 Kd with Kd in nM; a lower number is a better binder.
The mean shown is taken over the replicates in which the pair was detected.
A pair that was not seen in any replicate is written "nd"; this usually means weak binding, but a binder can also be missed.
Background: pairings of library AAYL50 with three empty control strains gave a value in 18% of cases (median 4.19, 5th percentile 2.99). Values in that range, when seen in few replicates, are hard to tell from nonspecific mating.

changes | log10 Kd (nM), mean | seen in
S25Q/S33Y/R34E | 0.61 | 3/3
R34I/R99I/L102S | 5.28 | 3/3
S58A/Y97H/P101L | nd | 0/3
K36C/L102T | 1.01 | 3/3
R34Y/S38D/S58H | 1.70 | 3/3
T59K/Y97L/L102H | 2.69 | 3/3
S28Y/V29C/S38G | 3.73 | 2/3
E32I/H98A/S103R | 3.89 | 3/3
R60Q/Q95Y/H98I | nd | 0/3
Y31W/E32S/S58N | 0.93 | 3/3
S26Q/N35H/R60H | nd | 0/3
Q27N/E61C/Q96A | nd | 0/3
Q27D/T59E/R99G | 0.73 | 3/3
R34S/S58K | 4.16 | 3/3
A57S/Q95G/S103Y | nd | 0/3
Y31T/S33F/S62N | 3.81 | 1/3
K24M/V29A/A57K | 2.86 | 3/3
V29G/E32G/L102S | nd | 0/3
S28D/L30K/K36D | 0.87 | 3/3
K24E/N37F/S62H | 3.82 | 1/3
S25H/E61T/P101Q | nd | 0/3
V29N/Y31L/K36N | 0.87 | 3/3
Y97G/R99G/S103W | 1.17 | 3/3
L30E/S62M/Q95Y | nd | 0/3
L30M/W56K/L102Q | nd | 0/3
K24T/V29C/S103T | 1.17 | 3/3
E32N/S33I/Q95T | 1.92 | 3/3
S28I/N35V/Y97D | 2.79 | 3/3
L30H/N35Y/Q96N | nd | 0/3
K24D/Q96F | nd | 0/3
Q27S/V29K/S62V | 1.18 | 3/3
R34T/E61W | 1.04 | 3/3
E32F/V39K/Q95C | 4.95 | 2/3
S28G/A57V/H98K | nd | 0/3

Continued, with the values leading:

log10 Kd (nM), mean | seen in | changes
1.38 | 3/3 | N37F/Q96C/L100N
1.07 | 3/3 | V29Y/Y97H
nd | 0/3 | L30H/A57W/Q96W
5.26 | 2/3 | Y97F/H98G/L102N
nd | 0/3 | S26Y/S28V/E61K
nd | 0/3 | S26I/N37E/H98A
0.24 | 3/3 | S25M/L102I/S103A
nd | 0/3 | Y31F/A40L/Q96C
0.38 | 3/3 | Y31G/S33V/H98M
2.28 | 3/3 | E32Y/R99I
0.82 | 3/3 | E32T/N35E/S62Q
3.83 | 2/3 | L30K/V39S/S103M
2.59 | 3/3 | N35W/T59V/H98I
2.54 | 3/3 | S28E/R34K/Q96R
nd | 0/3 | Q27W/V39A/A57E
4.05 | 2/3 | Y31L/N35M/Y97T
4.11 | 3/3 | P101R/L102D
2.92 | 1/3 | S25K/S33M/T59V
3.16 | 3/3 | L30N/R34K/R99G
5.11 | 3/3 | S38M/A40D/Y97T
0.56 | 3/3 | Y31N/R34S/W56G
4.52 | 1/3 | S25F/L100I/P101T
nd | 0/3 | Q27D/S58P/S103C
1.14 | 3/3 | N37Q/T59I/H98V
nd | 0/3 | Q27F/Q96T/P101Q
2.46 | 3/3 | R34Q/R99I/S103H
3.73 | 1/3 | K24G/V29I/R60H
2.04 | 3/3 | S26T/T59C/R99T
2.44 | 3/3 | R34K/R60T/L102A
4.19 | 1/3 | S25P/V39N
3.36 | 3/3 | S28E/A40V/R99Q
2.35 | 1/3 | S38I/W56V/S103T
nd | 0/3 | N37C/S58Y/P101F
5.36 | 1/3 | K24N/E32S/R60E
nd | 0/3 | S28G/N35M/H98G

The first 7 entries again:

changes | log10 Kd (nM), mean | seen in
S25Q/S33Y/R34E | 0.61 | 3/3
R34I/R99I/L102S | 5.28 | 3/3
S58A/Y97H/P101L | nd | 0/3
K36C/L102T | 1.01 | 3/3
R34Y/S38D/S58H | 1.70 | 3/3
T59K/Y97L/L102H | 2.69 | 3/3
S28Y/V29C/S38G | 3.73 | 2/3